Legend:
BIRC3 = target: T1, BIRC3 (Homo sapiens, UniProt Q13489); test: Western blot of BIRC3 content in human T cells; format: cell-based; settings: EV-3 10 μM, DMF 50 μM, BPK-21 20 μM, BPK-25 10 μM, AT406 1 μM; 24 h
T1 construct: endogenous in cells; host or cells: primary human T cells

Sequences of proteins named here, by UniProt entry; tags and fusion partners are left off.
UniProt Q13489, whole entry: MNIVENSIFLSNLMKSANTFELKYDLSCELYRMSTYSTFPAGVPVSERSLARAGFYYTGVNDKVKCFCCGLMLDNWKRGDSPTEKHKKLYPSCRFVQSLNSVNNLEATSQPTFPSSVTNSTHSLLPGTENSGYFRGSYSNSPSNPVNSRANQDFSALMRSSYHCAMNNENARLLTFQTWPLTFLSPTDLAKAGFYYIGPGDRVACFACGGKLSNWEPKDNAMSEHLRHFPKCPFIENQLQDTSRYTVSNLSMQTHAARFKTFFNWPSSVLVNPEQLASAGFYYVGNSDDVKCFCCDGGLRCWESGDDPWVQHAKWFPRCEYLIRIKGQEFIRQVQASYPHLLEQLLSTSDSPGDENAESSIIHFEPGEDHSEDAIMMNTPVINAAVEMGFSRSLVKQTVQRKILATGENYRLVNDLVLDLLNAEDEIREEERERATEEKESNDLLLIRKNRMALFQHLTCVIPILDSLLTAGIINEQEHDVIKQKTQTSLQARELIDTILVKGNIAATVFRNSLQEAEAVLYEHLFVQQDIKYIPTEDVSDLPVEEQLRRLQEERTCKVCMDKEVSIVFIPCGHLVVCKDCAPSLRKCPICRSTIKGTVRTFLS
UniProt Q13490, whole entry: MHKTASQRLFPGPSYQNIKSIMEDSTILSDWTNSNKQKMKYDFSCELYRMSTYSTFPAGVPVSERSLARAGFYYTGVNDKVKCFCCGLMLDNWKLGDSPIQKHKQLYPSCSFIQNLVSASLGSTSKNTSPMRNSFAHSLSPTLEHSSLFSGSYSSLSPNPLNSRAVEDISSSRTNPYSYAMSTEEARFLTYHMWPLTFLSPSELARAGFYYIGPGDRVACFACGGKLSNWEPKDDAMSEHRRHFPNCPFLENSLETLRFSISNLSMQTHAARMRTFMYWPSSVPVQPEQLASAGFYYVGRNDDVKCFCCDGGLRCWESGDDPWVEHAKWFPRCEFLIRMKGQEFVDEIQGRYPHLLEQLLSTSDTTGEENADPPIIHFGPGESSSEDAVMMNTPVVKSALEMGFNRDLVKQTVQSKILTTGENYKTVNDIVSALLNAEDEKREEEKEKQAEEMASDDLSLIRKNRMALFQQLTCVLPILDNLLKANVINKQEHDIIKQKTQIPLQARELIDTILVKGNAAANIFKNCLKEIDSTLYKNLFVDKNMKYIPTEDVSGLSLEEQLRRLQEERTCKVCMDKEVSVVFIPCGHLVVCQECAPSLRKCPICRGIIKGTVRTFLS

BIRC2 = BIRC2 (Homo sapiens, UniProt Q13490); test: Western blot of BIRC2 content in human T cells; settings: EV-3 10 μM, DMF 50 μM, BPK-21 20 μM, BPK-25 10 μM, AT406 1 μM; 24 h

Row | Compound | BIRC3 content (BIRC3) | BIRC2 content (BIRC2)
1 | CN[C@@H](C)C(=O)N[C@H]1CN(C(=O)CC(C)C)CC[C@H]2CC[C@@H](C(=O)NC(c3ccccc3)c3ccccc3)N2C1=O [AT406, reference compound] | but not BIRC3 | loss of BIRC2
2 | C=CC(=O)N(Cc1cccc(Cl)c1Cl)c1ccc(Oc2ccccc2)c(C(F)(F)F)c1 [BPK-21] | but not | but not
3 | C=CC(=O)N(Cc1cccc(Cl)n1)c1ccc(C(=O)Nc2ccccc2)nc1 [BPK-25] | but not | but not
4 | COC(=O)/C=C/C(=O)OC [DMF, reference compound] | but not | but not
5 | O=C(CCl)N1CCN(S(=O)(=O)c2ccc(-c3ccncc3)cc2)CC1 [EV-3] | reductions | reductions
